## Apparent affinities of Ab-14 variants for a coronavirus HR2 peptide

Source: Engelhart et al. 2022 (doi:10.1038/s41597-022-01779-4), MIT Lincoln Laboratory and A-Alpha Bio; data file from the FLAb repository.

Target: peptide PDVDLGDISGINAS, taken from heptad repeat 2 (HR2) of SARS-CoV-2 spike.

Each scFv is VH, a 15-residue (Gly4Ser)3 linker, VL, as in the parent Ab-14, and differs from it in the CDRs of the heavy chain only.
VH: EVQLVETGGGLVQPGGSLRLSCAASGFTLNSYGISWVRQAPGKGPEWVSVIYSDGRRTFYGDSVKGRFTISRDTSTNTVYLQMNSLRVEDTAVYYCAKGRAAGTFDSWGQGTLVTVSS
VL: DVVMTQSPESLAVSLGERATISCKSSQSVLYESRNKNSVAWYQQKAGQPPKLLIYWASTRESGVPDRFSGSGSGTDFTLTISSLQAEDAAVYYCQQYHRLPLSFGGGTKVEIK

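The starting antibody came from a phage panning campaign against this peptide. AAYL49 was designed without a model: most single CDR substitutions and a random sample of double and triple ones. AlphaSeq pools MATa yeast showing the antibodies with MATalpha yeast showing the peptide. Pairs that bind mate more often; barcode pairs of the diploids are counted by sequencing. The ratio of observed to expected reads was calibrated, replicate by replicate, on BCL2-family standards whose Kd was known from biolayer interferometry. There are three technical replicates.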

The parent's heavy chain CDRs are GFTLNSYGIS, VIYSDGRRTFYGDSVK, GRAAGTFDS; each variant's own CDRs replace them letter for letter. This list gathers variants with a substitution at I34 (VH, numbered from residue 1). Values are apparent Kd, the geometric mean of the replicates that gave a signal; lower means stronger binding. "nd" means that the variant was in the library but no mating with the target was seen in any replicate; the authors take this as a sign of poor binding, and no number exists. In this assay the parent's reference entry averaged 4.4 nM; its copy inside this library read 13 µM (one replicate of three). As a blank, each scFv also met three strains without target: over library AAYL49, 15% of these pairings were detected, typically at 11 µM and seldom below 680 nM. For each scFv, signals with the empty controls are counted beside the result.

* VFTVNSYGQS | VIYSDGRRTFYGDSVK | GRAAGTFDS -> nd (0 of 3 replicates; controls 1 of 9)
* GFYLNSYGYS | VIYSDGRRTFYGYSVK | GRAAGTFDS -> 3.9 µM (1 of 3 replicates; controls 1 of 9)
* GFTLNSYGYS | VIYSDGRRTFYGDSVK | GRAAGTFDS -> nd (0 of 3 replicates; controls 1 of 9)
* GFTLNSYGTS | VQYSDGRRTFYGDSVK | GRAAGTFDY -> 220 µM (3 of 3 replicates; controls 6 of 9)
* GFTQNSYGHS | VIYSDGRRTFYGDSVK | GRAAHTFDS -> nd (0 of 3 replicates; controls 0 of 9)
* GFTLNAYGFS | VIYSDGRRTFYGDSVK | GRAAGTFDS -> 300 nM (1 of 3 replicates; controls 0 of 9)
* GFTLNSYGWS | VIYSDGRRTFYGDSVK | GRAAGTFDS -> nd (0 of 3 replicates; controls 1 of 9)
* GFTLNSYGFL | VIYSDGRRTFYGDSVS | GRAAGTFDS -> 700 nM (1 of 3 replicates; controls 5 of 9)
* GFTLNSYGMS | VIYSDRRRTFYGDSVK | GRIAGTFDS -> nd (0 of 3 replicates; controls 0 of 9)
* GFTLNSYGNS | VIYSDGRITFYGSSVK | GRAAGTFDS -> nd (0 of 3 replicates; controls 8 of 9)
* EFTLNSYGFS | VQYSDGRRTFYGDSVK | GRAAGTFDS -> 36 µM (1 of 3 replicates; controls 0 of 9)
* GFTLNSYGPS | VIYSCGRRTFYGDSVK | GRAAGTFDS -> nd (0 of 3 replicates; controls 0 of 9)
* GFTLNAYGYS | VIYSDGRRTFYGDSVK | GRAAGWFDS -> 12 µM (2 of 3 replicates; controls 2 of 9)
* GFTLNSYGPS | VIYDDGRRTFYGDSVK | GRAAGTKDS -> 2.0 µM (1 of 3 replicates; controls 0 of 9)
* GFTLNSYGLS | VIYSDGRRTFYGDSVK | GRAAGTFDS -> nd (0 of 3 replicates; controls 1 of 9)
* GFTLDSYGTS | VIYSDGRRSFYGDSVK | GRAAGTFDS -> 9.7 µM (2 of 3 replicates; controls 0 of 9)
* GFTLNSYGRS | VIYSRGRRTFYGDSVK | GRAAGTFDS -> nd (0 of 3 replicates; controls 1 of 9)
* GFTLNSYGMS | VIYSDGRVTFYGDSVK | GRAAGTFDP -> 1.8 µM (1 of 3 replicates; controls 1 of 9)
* GFTLNSYGQS | VIYSDGRRTFYGDSVK | GRAAGTNES -> 25 µM (1 of 3 replicates; controls 3 of 9)
* GFTLNSYGKS | VIYSDGRRTFIGDSVK | GRLAGTFDS -> 2.8 µM (1 of 3 replicates; controls 1 of 9)
* GFTLNSYGNS | VITSDWRRTFYGDSVK | GRAAGTFDS -> 25 µM (1 of 3 replicates; controls 1 of 9)
* GFTLSSFGNS | VIYSDGRRTFYGDSVK | GRAAGTFDS -> nd (0 of 3 replicates; controls 0 of 9)
* GFTLNSYGCS | VIYSEGRRTFYGLSVK | GRAAGTFDS -> 390 nM (1 of 3 replicates; controls 2 of 9)
* GFTLNSYGTS | VIYSDGLRTFYGDSVK | GLAAGTFDS -> nd (0 of 3 replicates; controls 1 of 9)
* GFTLNSYGNS | VIYSDGRRTFYQDSVK | GRAAGTFRS -> nd (0 of 3 replicates; controls 0 of 9)
* GFTLNSYGRS | VIYSDGRRTFAGESVK | GRAAGTFDS -> 2.0 µM (1 of 3 replicates; controls 0 of 9)
* GFTLNQYGDS | LIYSDGRRTFYGDSVK | GRAAGTFDS -> 120 µM (1 of 3 replicates; controls 3 of 9)
* GFTLNSYGTS | VIYSIGRRTFYGDSVK | GRAAGTFAS -> 680 nM (1 of 3 replicates; controls 1 of 9)
* GFTLNSYGSS | VIYSDGRRYFYGDSVK | GRAAGTFDS -> nd (0 of 3 replicates; controls 0 of 9)
* GFTLNSYGMS | VIYSDGRRTFYGDSVK | GRAAGTFQS -> nd (0 of 3 replicates; controls 2 of 9)
* GFTLNSQGPS | VIYSDGGRTFYGDSVK | GRAAGTFDS -> 49 µM (3 of 3 replicates; controls 3 of 9)
* GFTLNSYGYS | VIYSDGRRTYYGDSVK | GKAAGTFDS -> nd (0 of 3 replicates; controls 0 of 9)
* GFTLNSYIAS | VIYSNGRRTFYGDSVK | GRAAGTFDS -> nd (0 of 3 replicates; controls 1 of 9)
* GFTLNSYGFS | VIYSDSRRTFYQDSVK | GRAAGTFDS -> 350 µM (2 of 3 replicates; controls 4 of 9)
* GVTLNSYGYS | VIYSDGRRTFYRDSVK | GRAAGTFDS -> 330 µM (1 of 3 replicates; controls 5 of 9)
* GFTENSYGDS | VIYSDGRRTFYGDSVK | GRAAGTFDS -> nd (0 of 3 replicates; controls 0 of 9)
* GQTLNSYGVS | VIYSDGRRTFYGDSVK | GRAAGKFDS -> nd (0 of 3 replicates; controls 0 of 9)
* GFTLNSYVGS | VIYSDGRRTFYGDSAK | GRAAGTFDS -> 4.2 µM (1 of 3 replicates; controls 6 of 9)
* GFTLNSYGAS | VIYSDGRRTFYGDSVK | GRAPGTFGS -> nd (0 of 3 replicates; controls 0 of 9)